Reference: patent US8765166B2, “Drug delivery devices for delivery of ocular therapeutic agents” (Aerie Pharmaceuticals, Inc., priority 2010, dated 2014)

Text: The active agent may be any active agent suitable to treat the desired condition. […] Examples include, but are not limited to, acetazolamide, dorzolamide HCl, timolol maleate, and ethacrynic acid sodium salt.

**Q.** With “albumin: albumin, approximately 67 kDa, labeled with fluorescein isothiocyanate (BSA-FITC, Fluka), mixed with unlabeled albumin” as the substance, how does the solubility class read?
**A.** high solubility
